{"source": "patent US5508311A", "about": "“Aliphatic propargylamines as selective MAO-B inhibitors and as neuroprotective agents” (University of Saskatchewan, priority 1993, dated 1996)", "system": "dopamine neurons", "test": "Protection of dopamine neurons against MPTP-induced neurotoxicity in the mice brain", "assay_type": "in vivo, mouse", "conditions": "MPTP alone (4×20 mg/Kg)", "description": "The analyses of MPTP-induced neurotoxicity were conducted in accordance with Heikkila et al. (Proc. Natl. Acad. Sci. U.S.A. 85 (1988), 6172-6176) hereby incorporated by reference. Mice were treated with 4×20 mg/Kg MPTP-HCl (MPTP: N-methyl-4-phenyl-1,2,3,6-tetrahydropyridine) every 2 hours to induce depletion in the caudate nucleus. Two hours prior to MPTP challenge, aliphatic propargylamines were administered to the animals. Three days later, dopamine levels and dopamine uptake site densities (GBR bindings) were estimated."}
{"smiles": "CN1CC=C(c2ccccc2)CC1", "note": "[MPTP, N-methyl-4-phenyl-1,2,3,6-tetrahydropyridine, reference compound]", "values": [{"measurement": "Dopamine", "result": 3.3, "unit": "μg/gm"}, {"measurement": "Dopamine binding site", "setting": "GBR binding", "result": 221, "unit": "pmol/mg"}]}
